Data as given in patent publication US11098063B2, “Diazabicyclic substituted imidazopyrimidines and their use for the treatment of breathing disorders” (Bayer Aktiengesellschaft, priority 2017, dated 2021).

Protein sequences, listed by entry. Tags and fused reporters are not part of them.
UniProt Q9NPC2, whole entry: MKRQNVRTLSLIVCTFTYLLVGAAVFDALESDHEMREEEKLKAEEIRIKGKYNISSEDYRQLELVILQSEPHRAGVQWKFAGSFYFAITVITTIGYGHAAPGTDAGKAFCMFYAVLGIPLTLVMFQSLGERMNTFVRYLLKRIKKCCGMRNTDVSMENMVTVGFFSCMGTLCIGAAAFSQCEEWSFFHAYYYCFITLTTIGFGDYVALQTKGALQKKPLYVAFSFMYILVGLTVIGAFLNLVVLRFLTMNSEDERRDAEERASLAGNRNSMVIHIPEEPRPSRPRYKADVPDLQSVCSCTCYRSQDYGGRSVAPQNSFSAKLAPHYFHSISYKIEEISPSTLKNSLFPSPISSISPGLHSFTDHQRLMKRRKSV
UniProt O14649, whole entry: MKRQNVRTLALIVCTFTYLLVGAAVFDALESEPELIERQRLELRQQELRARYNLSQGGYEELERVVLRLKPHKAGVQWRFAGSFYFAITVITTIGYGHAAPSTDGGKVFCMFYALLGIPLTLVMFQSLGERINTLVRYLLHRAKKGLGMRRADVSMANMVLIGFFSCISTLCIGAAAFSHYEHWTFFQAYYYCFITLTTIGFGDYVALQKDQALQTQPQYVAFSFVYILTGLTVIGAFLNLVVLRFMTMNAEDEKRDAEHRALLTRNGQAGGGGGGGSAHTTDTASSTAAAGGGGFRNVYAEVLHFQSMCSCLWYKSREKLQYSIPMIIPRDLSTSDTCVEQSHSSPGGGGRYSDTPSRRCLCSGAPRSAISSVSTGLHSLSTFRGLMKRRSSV

Key:
[1] = biological target: human TASK-3 (Homo sapiens (Human), UniProt Q9NPC2); test: Inhibition of recombinant TASK-3 in stably transfected CHO cells (voltage-sensitive dye, KCl depolarization); type: cell-based; conditions: read-out: TASK-3 IC50, depolarization by 40 mM potassium chloride
[2] = biological target: human TASK-1 (Homo sapiens (Human), UniProt O14649); test: Inhibition of recombinant TASK-1 in stably transfected CHO cells (voltage-sensitive dye, KCl depolarization); type: cell-based; conditions: read-out: TASK-1 IC50, depolarization by 40 mM potassium chloride

**Q.** How did the IC50 [1] turn out when `COc1ccc(F)c(C(=O)N2C3CCC2CN(C(C)c2c(-c4ccc(Cl)cc4)nc4ncccn24)C3)n1` (centres unmarked) was run?
**A.** 670 nM

**Q.** What about the IC50 [2] of the same molecule?
**A.** 3500 nM
